Results reported in patent publication US20250361273A1, “METHODS AND COMPOSITIONS” (priority 2024, published 2025).

Amino acid sequences for entries named in this document (tags omitted).
UniProt P32245, whole entry: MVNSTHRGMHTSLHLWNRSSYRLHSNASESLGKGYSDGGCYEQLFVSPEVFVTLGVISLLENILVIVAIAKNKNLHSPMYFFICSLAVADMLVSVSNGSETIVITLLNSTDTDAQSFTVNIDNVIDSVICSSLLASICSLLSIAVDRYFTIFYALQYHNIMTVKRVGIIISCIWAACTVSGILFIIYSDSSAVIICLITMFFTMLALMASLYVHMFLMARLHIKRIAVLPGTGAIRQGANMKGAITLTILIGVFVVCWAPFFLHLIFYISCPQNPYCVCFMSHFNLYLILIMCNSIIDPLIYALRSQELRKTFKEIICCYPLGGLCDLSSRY

Key:
Type in all cases: cell-based
[1] = biological target: T1, MC4R (Homo sapiens, UniProt P32245); test: B-arrestin assay (human receptors), DiscoverX PathHunter, MC4R; conditions: read-out: MC4R Barr EC50
T1 construct: host or cells: HEK293 (cAMP Hunter and PathHunter MC4R cell lines)
Experimental: Compound activity was analyzed using CBIS data analysis suite (ChemInnovation, CA).

[2] = biological target: T1, MC4R; test: cAMP assay (human receptors), DiscoverX HitHunter, MC4R; conditions: HEK293
[3] = biological target: T1, MC4R; test: Bias calculation MC4R B-arrestin v MC4R cAMP; conditions: Table 5

Question: a-MSH was tested. Which EC50 [1] did it give?
Answer: 86 nM

Question: And the EC50 [2]?
Answer: 33.7 nM

Question: What about the “Bias: MC4R B-arrestin v MC4R cAMP (Larger numbers indicate bias towards B-arrestin)” value [3] of the same substance?
Answer: 0.39
